PubChem BioAssay AID720711 (National Center for Advancing Translational Sciences (NCATS), 2013)
The list shows a part of the results, in another mix than the full data. Activity calls are given as the source filed them. Calls follow the shape of the dose curve; as a rule, active = well fitted activation curve with a large enough effect; inconclusive = small, poorly fitted or top-dose-only effect; inactive = no such curve, though single readings can be large or run the other way.

Amino acid sequences for entries named in this document (tags omitted). A change or cut given only in a name is not applied to a line headed by its entry.
UniProt Q8WZA2: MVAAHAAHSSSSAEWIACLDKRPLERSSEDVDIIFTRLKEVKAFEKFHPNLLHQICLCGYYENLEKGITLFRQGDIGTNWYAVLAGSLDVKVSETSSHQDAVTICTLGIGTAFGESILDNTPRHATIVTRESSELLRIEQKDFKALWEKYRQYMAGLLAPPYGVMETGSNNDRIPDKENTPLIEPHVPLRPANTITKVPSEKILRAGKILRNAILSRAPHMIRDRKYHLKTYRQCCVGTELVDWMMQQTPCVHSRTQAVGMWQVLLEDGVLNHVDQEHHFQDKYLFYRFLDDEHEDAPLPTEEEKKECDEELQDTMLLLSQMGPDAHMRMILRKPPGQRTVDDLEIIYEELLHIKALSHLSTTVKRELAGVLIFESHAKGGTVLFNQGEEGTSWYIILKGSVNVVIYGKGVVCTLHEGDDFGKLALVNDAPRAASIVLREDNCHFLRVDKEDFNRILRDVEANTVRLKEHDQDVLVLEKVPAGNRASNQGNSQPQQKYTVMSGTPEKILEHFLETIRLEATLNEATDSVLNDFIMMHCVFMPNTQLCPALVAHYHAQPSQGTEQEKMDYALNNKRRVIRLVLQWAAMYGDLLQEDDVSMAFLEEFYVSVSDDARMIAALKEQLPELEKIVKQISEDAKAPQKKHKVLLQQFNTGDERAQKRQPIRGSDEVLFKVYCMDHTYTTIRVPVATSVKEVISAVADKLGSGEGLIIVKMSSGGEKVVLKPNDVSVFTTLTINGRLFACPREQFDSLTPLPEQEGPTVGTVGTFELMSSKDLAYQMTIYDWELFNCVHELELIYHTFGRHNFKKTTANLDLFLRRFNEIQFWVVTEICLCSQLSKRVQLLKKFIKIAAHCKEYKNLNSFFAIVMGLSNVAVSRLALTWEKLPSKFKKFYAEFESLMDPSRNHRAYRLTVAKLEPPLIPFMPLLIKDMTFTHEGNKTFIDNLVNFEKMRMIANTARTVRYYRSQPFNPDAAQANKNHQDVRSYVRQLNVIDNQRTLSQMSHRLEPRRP

Target: Rap guanine nucleotide exchange factor 4 (Homo sapiens) (UniProt Q8WZA2)
Experiment: qHTS for Agonist of cAMP-regulated guanine nucleotide exchange factor 4 (EPAC2): primary screen; also: nearly all actives have a fitted effect of over 50% in size
Conditions: biochemical qHTS, 100% = 6.5 mM cAMP response; at 154 µM (top of the series)
Text: In multi-cellular eukaryotic organisms, the effects of cAMP are transduced by two ubiquitously-expressed intracellular cAMP receptors, the classic protein kinase A/cAMP-dependent protein kinase (PKA/cAPK) and the more recently discovered exchange protein directly activated by cAMP/cAMP-regulated guanine nucleotide exchange factor (EPAC/cAMP-GEF). Both PKA and EPAC are ubiquitously expressed in all tissues, and an increase in intracellular cAMP levels will lead to the activation of both PKA and EPAC. Therefore, careful dissections of the individual role and relative contribution of EPAC and PKA within the overall cAMP signaling in various model systems are critical for further elucidating the mechanism of cAMP signaling. To date no EPAC-specific antagonists and agonist, as well as isoform-specific agonists have been reported, and developing EPAC-specific pharmacological probes to determine the physiological functions that EPAC play in the overall cAMP-mediated signaling remains a major challenge within the research field. Furthermore, identified regulators of EPAC may lead to new mechanism-based therapeutic strategies specifically targeting the EPAC / cAMP-signaling components as EPAC has been implicated to play important roles in major human pathological conditions such as diabetes, heart disease, and cancer.
This qHTS will be used to screen the Molecular Libraries Small Molecule Repository (MLSMR) as a concentration-titration series using the NCGC unique quantitative screening (qHTS) platform to find activators for EPAC2. In addition, this assay will also be used as a counterscreen for the EPAC1 qHTS. This fluorescent based assay is developed and validated for EPAC2 that measures exchange using EPAC effector Rap1 complex with BODIPY-GDP, a GDP analog with a tethered fluorophores. Activators are identified by monitoring the change in fluorescence signal as the exchanged free BODIPY-GDP has a reduced fluorescence compared to Rap1-bound BODIPY-GDP. […] in signal (activation) is the desired outcome for the EPAC2 agonist while no activity in this assay is desired for the EPAC1 agonist counterscreen.
[1] de Rooij, J., Zwartkruis, F. J., Verheijen, M. H., Cool, R. H., Nijman, S. M., Wittinghofer, A., and Bos, J.L. (1998) Nature 396, 474-477
[2] Kawasaki, H., Springett, G. M., Mochizuki, N., Toki, S., Nakaya, M., Matsuda, M., Housman, D. E., and Graybiel, A. M. (1998) Science 282, 2275-2279
NIH Chemical Genomics Center [NCGC]
NIH Molecular Libraries Probe Centers Network [MLPCN]
Assay Submitter (PI): Xiaodong Cheng, The University of Texas, Medical Branch
Briefly, three uL of reagents (100 nM EPAC2, 250 nM RAP1B-BODIPY-GDP, 50 uM GDP) were dispensed into a 1536-well Greiner black solid-bottom medium binding assay plate. Controls and test compounds (23 nL) were transferred to the plate via a Kalypsys pin tool equipped with a 1536-pin array. The plates were centrifuged at 1,000 rpm for 15 seconds followed by 5 minute incubation at room temperature. The assay plates were read at 5 minute intervals for 30 minutes in the ViewLux plate reader using 480nm excitation and 540nm emission filters. The results were normalized to the agonist positive control of 6.5 mM cAMP.

| Structure (SMILES) | activation |
| --- | --- |
| C[N+]1=C2C=CC=CC=C2SC12C([N+](=O)[O-])=CC([N+](=O)[O-])=C[C-]2[N+](=O)[O-] (configuration not stated) | inactive: -10.5% |
| Nc1ccc([As](=O)(O)c2ccc(N)cc2)cc1 | inactive: 1.38% |
| CCN(/C(=N/P(=O)(N1CCOCC1)N1CCOCC1)N1CCOCC1)c1ccc(OC)cc1 | inactive: 0.742% |
| CN(C)C(=O)OCCc1n(C)cc[n+]1C | inactive: 4.75% |
| CC(C)=N/N=C(\N)N[N+](=O)[O-] | inactive: 6.01% |
| CC(C)c1nc(Nc2ccccc2)n(P(=O)(N(C)C)N(C)C)n1 | inactive: -0.965% |
| c1cc(-c2nn[nH]n2)ccc1-c1nn[nH]n1 | inactive: 3.09% |
| CC1CCN(C(=O)Oc2c(Cl)cc(Cl)c3cccnc23)CC1 | inactive: -19.4% |
| COc1ccc(C2=NCC(CBr)S2)cc1 (configuration not stated) | inactive: 4.5% |
| CC(=O)N1C2C3N(C(C)=O)C1C1N(C(C)=O)C(C(N1C(C)=O)N3C(C)=O)N2C(C)=O | inactive: -19.5% |
| O=[N+]([O-])c1cccc2n[nH]nc12 | inactive: 10.9% |
| O=[N+]([O-])c1cc([N+](=O)[O-])c(CCNc2ccccc2)c([N+](=O)[O-])c1 | inactive: -1.04% |
| CCc1nc2c(n1)c1c(non1O)c1c2no[n+]1[O-] | inactive: -9.64% |
| Cc1ccc(NP(=O)(Oc2ccccc2)Oc2ccccc2)nc1 | inactive: 1.05% |
| CC(C)(C)C(=O)NC(Sc1ccncn1)C(Cl)(Cl)Cl (configuration not stated) | inactive: 3.13% |
| O=[N+]([O-])c1ncn(CCn2ncnc2[N+](=O)[O-])n1 | inactive: 4.43% |
| O=[N+]([O-])c1cccc(NC2=NCC(CBr)S2)c1 (configuration not stated) | inactive: 7.04% |
| COC(=O)C1(C)COP(=O)(Nc2ccccc2)OC1 (configuration not stated) | inactive: 4.83% |
| O=C(O)CNc1ccc([As](=O)(O)O)cc1 | inactive: 11.4% |
| O=P1(N(CCCl)CCCl)OCCCS1 (configuration not stated) | inactive: 5.24% |
| O=C(Nc1cc([As](=O)(O)O)ccc1O)c1ccccc1 | inactive: 9.31% |
| CCN(N=Nc1nonc1N)c1nonc1N | inactive: 3.33% |
| Nc1cccc2ccc([As](=O)(O)O)cc12 | inactive: -0.852% |
| CCCC1OP(N)(=O)OCC1CC (configuration not stated) | inactive: -1.15% |
| O=C(O)c1ccccc1[As](=O)(O)O | inactive: 7.55% |
| CC(=O)Nc1ccc([As](=O)(O)O)cc1 | inactive: -5.85% |

| Structure (SMILES) | activation |
| --- | --- |
| CN(C)P(=O)(N(C)C)n1c(Nc2ccccc2)nnc1-c1ccccc1 | inactive: 14.5% |
| O=P(Nc1nc2ccc(Cl)cc2s1)(c1ccccc1)c1ccccc1 | inactive: 6.62% |
| CN(C(=O)Cc1ccc(Cl)c(Cl)c1)[C@H]1CCCC[C@@H]1N1CCCC1 | inactive: 2.27% |
| Cc1ccc(NP(=O)(Oc2ccccc2F)Oc2ccccc2F)nc1 | inactive: 16.7% |
| CCOP(=O)(Nc1ccccc1)OCC | inactive: -2.84% |
| Cc1cc(SC(NC(=O)c2ccc(F)cc2)C(Cl)(Cl)Cl)ncn1 (configuration not stated) | inactive: -2.61% |
| CC(C)CC(=O)NC(Sc1ccc(Cl)cc1)C(Cl)(Cl)Cl (configuration not stated) | inactive: -1.45% |
| Nc1cc(N)c2nonc2c1[N+](=O)[O-] | inactive: 5.21% |
| O=C(NC(Sc1ccncn1)C(Cl)(Cl)Cl)c1ccccc1 (configuration not stated) | inactive: -6.8% |
| Oc1ccccc1CNc1ccccn1 | inactive: 16.2% |
| O=[N+]([O-])C1C(O)C(O)C([N+](=O)[O-])C(O)C1O (configuration not stated) | inactive: 13.2% |
| NC(=O)c1cc([N+](=O)[O-])cc([N+](=O)[O-])c1N | inactive: 0.531% |
| Cc1ccc(N/C(=N/P(=O)(N2CCOCC2)N2CCOCC2)N2CCOCC2)cc1 | inactive: 11.8% |
| CN(C(=O)Cc1ccc(Cl)c(Cl)c1)[C@H]1CCCC[C@H]1N1CCCC1 | inactive: 3.65% |
| Cc1ccc(OP(=O)(Nc2nccs2)Oc2ccc(C)cc2)cc1 | inactive: -0.357% |
| COc1ccccc1OP(=O)(Nc1ccc(C)cn1)Oc1ccccc1OC | inactive: 7.86% |
| Clc1ccc(Cl)c(NC2=NCC(CBr)S2)c1 (configuration not stated) | inactive: 6.42% |
| CN1CCCC(OC(=O)C(c2ccccc2)c2ccccc2)C1 (configuration not stated) | inactive: 0.0383% |
| COC(=O)C1(C)COP(=O)(NCc2ccccc2)OC1 (configuration not stated) | inactive: -2.18% |
| N#C/C(=C\c1ccc(N(CCBr)CCBr)cc1)C(N)=O | inactive: -7.04% |
| CC(=O)c1ccc(N2CC2c2ccncc2)cc1 (configuration not stated) | inactive: 2.85% |
| C[C@@H]1C=CCP(=O)(Oc2ccccc2)O1 (some centres not stated) | inactive: 7.37% |
| C[C@H]1OP(=O)(Oc2ccccc2)C[C@@H]2O[C@@H]21 (some centres not stated) | inactive: -1.34% |
| Cc1ccccc1CN(C)C(=O)COC(=O)C(O)(c1ccccc1)c1ccccc1 | inactive: 7.09% |
| CC(=O)Nc1ccc(Oc2c([N+](=O)[O-])cc([N+](=O)[O-])cc2[N+](=O)[O-])cc1 | inactive: 2.86% |
| CC(=O)Nc1ccc([As](=O)(O)O)c(O)c1 | inactive: 1.44% |

| Structure (SMILES) | activation |
| --- | --- |
| CCOc1ccc(C2=NCC(CBr)S2)cc1 (configuration not stated) | inactive: 4.1% |
| O=P1(Nc2nc3ccc(Cl)cc3s2)COc2ccccc2O1 (configuration not stated) | inactive: 0.144% |
| CCc1cc(O)c([N+](=O)[O-])c(C)c1[N+](=O)[O-] | inactive: 4.47% |
| CC(C)(C)C(=O)NC(Sc1ccccc1)C(Cl)(Cl)Cl (configuration not stated) | inactive: 4.54% |
| Cc1ccc(OP(=O)(Nc2ccccn2)Oc2ccc(C)cc2)cc1 | inactive: 13.2% |
| CC(=O)NC(SC(=S)N(CC(C)C)CC(C)C)C(Cl)(Cl)Cl (configuration not stated) | inactive: -6.24% |
| COC(=O)c1cc2c(s1)N=C(c1ccccc1)N(C)P2(=O)N1CCOCC1 (configuration not stated) | inactive: 4.92% |
| CCC(=O)N1C2C3N(C(=O)CC)C1C1N(C(=O)CC)C(C(N1C(=O)CC)N3C(=O)CC)N2C(=O)CC | inactive: 1.85% |
| O=C(OC1CN2CCC1CC2)c1ccccc1 (configuration not stated) | inactive: 6.4% |
| CN(C)C(=O)Oc1noc2ccccc12 | inactive: 0.0586% |
| O=c1c2cc([N+](=O)[O-])ccc2[nH]c2c([N+](=O)[O-])cc([N+](=O)[O-])cc12 | inactive: 2.5% |
| Cc1ccccc1OP(=O)(Nc1ccccn1)Oc1ccccc1C | inactive: 7.12% |
| CC(NC(=O)COC(=O)C(O)(c1ccccc1)c1ccccc1)c1ccccc1 (configuration not stated) | inactive: 0.395% |
| O=C(NC1CCS(=O)(=O)C1)NP(=S)(Oc1ccccc1)Oc1ccccc1 (configuration not stated) | inactive: 1.11% |
| CCNC(=S)/N=C(\N)N[N+](=O)[O-] | inactive: 6.64% |
| Cc1ccc(NP(=O)(Oc2cccc(C)c2)Oc2cccc(C)c2)nc1 | inactive: -4.14% |
| c1ccc(-c2nn[nH]n2)c(-c2nn[nH]n2)c1 | inactive: 4.98% |
| O=P1(N(CCCl)CCCl)OCCC2CCCCN21 (configuration not stated) | inactive: 0.769% |
| O=[N+]([O-])c1ncn(CCn2cnc([N+](=O)[O-])n2)n1 | inactive: 1.16% |
| CC(=O)NC(SC(=S)N(C)C)C(Cl)(Cl)Cl (configuration not stated) | inactive: 4.84% |
| O=[N+]([O-])c1ccc(O)c(/C=N/Nc2ccc([N+](=O)[O-])cc2[N+](=O)[O-])c1 | inactive: 3.5% |
| O=[As](O)(c1ccccc1)c1ccc(O)cc1 | inactive: 1.51% |
| Nc1ccc([As](=O)(O)c2ccc([N+](=O)[O-])cc2)cc1 | inactive: 4.03% |
| C(Cc1nn[nH]n1)Cc1nn[nH]n1 | inactive: 16.2% |
| O=C(OC1CN2CCC1CC2)c1cccc(Cl)c1 (configuration not stated) | inactive: -1.84% |
| Nc1ccc(CCCCOc2ccccc2)cc1 | inactive: 10.1% |

| Structure (SMILES) | activation |
| --- | --- |
| COc1ccc(N)c([N+](=O)[O-])c1[N+](=O)[O-] | inactive: -1% |
| CN(C)C1(CNC(=O)c2ccc(Cl)c(S(N)(=O)=O)c2)CCCCC1 | inactive: 0.216% |
| O=P(Nc1ccccn1)(c1ccc(Br)cc1)c1ccc(Br)cc1 | inactive: -3.6% |
| C[C@H]1OP(=O)(Oc2ccccc2)[C@H](O)[C@H](O)[C@H]1N=[N+]=[N-] (some centres not stated) | inactive: 4.34% |
| O=P(Nc1nc2ccccc2s1)(c1ccccc1)c1ccccc1 | inactive: -6.34% |
| CC(C)C(=O)NC(Sc1ccccc1)C(Cl)(Cl)Cl (configuration not stated) | inactive: 4.09% |
| c1nnnn1CCn1cnnn1 | inactive: -0.946% |
| COc1ccccc1CNC(=O)COC(=O)C(O)(c1ccccc1)c1ccccc1 | inactive: -2.28% |
| CC1(CBr)Cn2c(nc3ccccc3c2=O)S1 (configuration not stated) | inactive: -6.22% |
| CN(C(=O)Cc1ccc(Cl)c(Cl)c1)[C@@H]1CCCC[C@H]1N1CCCC1 | inactive: -3.89% |
| CC(C)/C=N\N=C(\N)N[N+](=O)[O-] | inactive: 5.85% |
| CN(CCCl)Cc1cc(Cl)c(NC2=NCCN2)c(Cl)c1 | inactive: 8.71% |
| CCOP(=O)(Nc1ccc(C)cn1)OCC | inactive: -1.75% |
| CCOP(=O)(NC(=NC(C)c1ccccc1)NC(C)c1ccccc1)OCC (configuration not stated) | inactive: -3.07% |
| CCC1=CC2Cc3nc4ccc(Cl)cc4c(N)c3C(C1)C2 (configuration not stated) | inactive: 8.67% |
| O=P1(Nc2ccccn2)COc2ccccc2OC1 | inactive: -1.38% |
| CC(C)(C)C(=O)NC(Sc1ncccn1)C(Cl)(Cl)Cl (configuration not stated) | inactive: 1.81% |
| Clc1n[nH]nc1-c1nn[nH][15n]1 | inactive: -0.297% |
| O=P1(N(CCCl)CCCl)NCCC(C(F)(F)F)O1 (configuration not stated) | inactive: 2.98% |
| O=P1(Nc2ncccn2)COc2ccccc2OC1 | inactive: -1.24% |
| Cc1ccc(S(=O)(=O)N(CCCN)CCCc2c(C)nc(N)[nH]c2=O)cc1 | inactive: 7.37% |
| NS(=O)(=O)c1cccc(NC(=O)COC(=O)C(O)(c2ccccc2)c2ccccc2)c1 | inactive: 3% |
| O=P1(Nc2ccc(Br)cn2)COc2ccccc2OC1 | inactive: 5.04% |
| O=[As](O)(c1cccs1)c1cccs1 | inactive: -4.43% |
